This note sets out measurements from patent US11840541B2 (priority 2014, dated 2023).

The chains behind the UniProt entries cited, without tags or fusion partners. Where a name states a change or a piece, a line headed by the entry shows the natural chain unless it says otherwise.
UniProt P41145: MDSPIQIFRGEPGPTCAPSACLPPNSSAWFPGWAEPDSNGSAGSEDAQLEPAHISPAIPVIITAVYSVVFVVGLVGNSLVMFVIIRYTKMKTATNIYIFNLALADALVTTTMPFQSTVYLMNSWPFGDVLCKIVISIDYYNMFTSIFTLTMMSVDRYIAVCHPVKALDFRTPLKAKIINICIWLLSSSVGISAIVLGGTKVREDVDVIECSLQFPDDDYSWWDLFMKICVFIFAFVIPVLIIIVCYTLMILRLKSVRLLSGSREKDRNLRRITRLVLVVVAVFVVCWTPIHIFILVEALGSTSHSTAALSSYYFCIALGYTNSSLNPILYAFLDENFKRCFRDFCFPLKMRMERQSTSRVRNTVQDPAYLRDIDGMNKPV
UniProt P35372, whole entry, looked up: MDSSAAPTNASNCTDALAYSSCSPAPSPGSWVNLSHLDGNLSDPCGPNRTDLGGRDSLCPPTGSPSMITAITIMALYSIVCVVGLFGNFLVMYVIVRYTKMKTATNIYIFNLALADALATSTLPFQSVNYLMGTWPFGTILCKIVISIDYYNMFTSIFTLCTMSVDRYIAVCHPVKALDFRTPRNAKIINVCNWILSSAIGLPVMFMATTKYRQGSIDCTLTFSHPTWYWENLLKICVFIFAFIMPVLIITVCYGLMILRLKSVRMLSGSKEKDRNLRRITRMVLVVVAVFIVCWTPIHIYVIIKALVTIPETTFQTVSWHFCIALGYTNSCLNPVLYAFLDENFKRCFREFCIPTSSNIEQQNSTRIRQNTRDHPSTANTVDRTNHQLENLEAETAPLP
UniProt P41143, whole entry, looked up: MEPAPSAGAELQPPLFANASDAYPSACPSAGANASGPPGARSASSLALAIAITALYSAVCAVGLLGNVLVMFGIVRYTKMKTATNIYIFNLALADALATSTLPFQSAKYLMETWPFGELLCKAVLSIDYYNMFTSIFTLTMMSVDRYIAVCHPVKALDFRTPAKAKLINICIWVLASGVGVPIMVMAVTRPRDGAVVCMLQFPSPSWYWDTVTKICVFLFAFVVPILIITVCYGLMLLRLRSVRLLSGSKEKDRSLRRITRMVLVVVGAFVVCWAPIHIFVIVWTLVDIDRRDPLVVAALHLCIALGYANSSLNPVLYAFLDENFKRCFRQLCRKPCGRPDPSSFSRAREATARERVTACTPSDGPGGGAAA

What all share (assay type): cell-based
For experiment [1], the target named is Human KOR (Homo sapiens, UniProt P41145). Kind of experiment: BRET functional assay, G protein activation (agonist mode), human KOR. Particulars: read-out: EC50 at indicated opioid receptor, Human KOR; Table 3; HEK-293T, BRET signal at 5 minutes. A general note: Bioluminescence resonance energy transfer reports proximity on the nanometre scale.
Experiment [2] deals with Human MOR (Homo sapiens, UniProt P35372). Nature of the experiment: BRET functional assay, G protein activation (agonist mode), human MOR. Particulars: read-out: EC50 at indicated opioid receptor, Human MOR; Table 3; HEK-293T, BRET signal at 5 minutes.
Experiment [3] addresses Human DOR (Homo sapiens, UniProt P41143). Nature of the experiment: BRET functional assay, G protein activation (agonist mode), human DOR. The conditions noted are these: read-out: EC50 at indicated opioid receptor, Human DOR; Table 3; HEK-293T, BRET signal at 5 minutes.

For orientation: EC50 means the concentration needed to bring the measured effect to its halfway point. `CCC1CC2CC3c4nc5ccc(O)cc5n4CCN(C2)C13` (stereo not drawn): the EC50 is more than 10 µM in experiment [1], more than 100 µM in experiment [2] and more than 100 µM in experiment [3].
